Source: patent US10034922B2, “Peptide having angiogenesis inhibitory activity and composition containing same” (GemVax & KAEL Co., Ltd., priority 2013, dated 2018)

Tests used:
[1] = system: HSP70; experiment: HSP70 level in hypoxia circumstance (immunoblotting); type: cell-based, human; settings: PEP1 20 μM, vs mock treated control
Protocol: In hypoxia circumstance, for verifying the effect of PEP1 to the level of HSP, MCF7 and HeLa cells were treated with 20 μM PEP1, and incubated in the hypoxia circumstance and the normoxia circumstance. By using BBL GasPak (Becton Dickinson) which lows the oxygen to non-detective level in 90 minutes by catalytic reaction, the anoxia circumstance was induced. The incubation time was in a range of 2 to 24 hours. As mentioned above, the cells were collected and immunoblotted by using α-HSP70, α-HSP90, α-HIF-1α, or α-GAPDH antibodies. The α-GAPDH, for the protein quantification, was used for the normalization of the amount of HSP70/90 by the amount of GAPDH.

[2] = system: HSP70; experiment: HSP70 in tumor sections (immunohistochemical staining); type: in vivo, mouse; settings: MC38 tumor sections, PEP1 50 μg/kg
Protocol: 7 week-old BALB/c athymic mice (Nu/Nu) (10 mice per group; n=20, female, Orient Bio Co. Gyunggido, Korea) were divided into two groups randomly after the subcutaneous injection of murine colon carcinoma MC38 (5×10^5 cells/ml in 200 μl PBS per site). PEP1 (50 μg/kg in 100 μl 0.9% NaCl solution) or PBS were injected into the mice once per 2 days. When the size of tumor reaches 10 mm, the PEP1 and PBS were injected to the inside of tumor. The size of tumor was measured in once per 2 days, and the volume of tumor was calculated following equation; volume (mm3)=((width2×length)/2). All experiments were approved by the Institute for Experimental Animals (College of Medicine, Seoul National University at Seoul, Korea).
Similar to the PCNA staining method, by using immunohistochemical staining, HSP70 and HSP90 proteins expression in tumor were evaluated. The antibodies to the heat shock proteins (HSP70; sc-7298, HSP90; ab1429) was used as the first antibodies. HSP70 and HSP90 proteins expression by tumors was evaluated by immunoblotting using tumor lysate. After freezing by liquid oxygen, the tumor was crashed by the mortar, and homogenized by extraction buffer (20 mM HEPES, pH7.5, 100 mM NaCl, 0.05% Triton X-100, 1 mM DTT, 0.5 mM sodium orthovanadate, 1 mM EDTA, 0.5 mM PMSF, 10 μg/ml aprotinin, 5 μg/ml leupeptin, 2 μg/ml pepstatin). […]

Structure (SMILES): CC[C@H](C)[C@H](NC(=O)[C@H](Cc1ccccc1)NC(=O)[C@H](CCCNC(=N)N)NC(=O)[C@H](CC(C)C)NC(=O)[C@H](CCCNC(=N)N)NC(=O)[C@H](CO)NC(=O)[C@@H](NC(=O)[C@H](CC(C)C)NC(=O)[C@H](CC(C)C)NC(=O)[C@H](C)NC(=O)[C@@H]1CCCN1C(=O)[C@H](CCCNC(=N)N)NC(=O)[C@H](C)NC(=O)[C@@H](N)CCC(=O)O)[C@@H](C)O)C(=O)N1CCC[C@H]1C(=O)N[C@@H](CCCCN)C(=O)O [PEP1, EARPALLTSRLRFIPK]
- expression of HSP70 over time ([1]; HeLa cells): significantly decreased
- expression of HSP70 over time ([1]; MCF7 cells): significantly decreased
- HSP70 staining pattern vs PBS treated control [2]: weaker staining pattern
- HSP70 positive stained part vs control ([2]; Leica Qwin quantification): very small
